The target in test [1] is human A2b receptor subtype (Homo sapiens, UniProt P29275). Kind of test: Adenosine 2b receptor subtype competition radioligand binding, [3H]DPCPX, HEK293 membranes. The settings on record: Table 13; concentration not given.
For test [2], the target named is human A3 receptor subtype (Homo sapiens, UniProt P0DMS8). As to the kind of experiment: Adenosine 3 receptor competition radioligand binding, [125I]AB-MECA, HEK293 membranes. As to conditions: read-out: Binding Ki (nM) A3; Table 13.

Sequences of proteins named here, by UniProt entry; tags and fusion partners are left off.
UniProt P29275, whole entry: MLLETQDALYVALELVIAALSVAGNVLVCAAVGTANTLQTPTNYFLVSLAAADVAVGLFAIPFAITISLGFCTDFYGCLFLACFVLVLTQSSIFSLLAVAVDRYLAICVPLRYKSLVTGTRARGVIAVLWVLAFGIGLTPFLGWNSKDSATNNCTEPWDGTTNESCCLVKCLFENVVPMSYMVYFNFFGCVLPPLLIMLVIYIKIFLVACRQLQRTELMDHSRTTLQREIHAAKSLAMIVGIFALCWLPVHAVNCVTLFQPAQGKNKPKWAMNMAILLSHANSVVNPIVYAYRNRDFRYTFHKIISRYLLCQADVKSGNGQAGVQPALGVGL
UniProt P0DMS8, whole entry: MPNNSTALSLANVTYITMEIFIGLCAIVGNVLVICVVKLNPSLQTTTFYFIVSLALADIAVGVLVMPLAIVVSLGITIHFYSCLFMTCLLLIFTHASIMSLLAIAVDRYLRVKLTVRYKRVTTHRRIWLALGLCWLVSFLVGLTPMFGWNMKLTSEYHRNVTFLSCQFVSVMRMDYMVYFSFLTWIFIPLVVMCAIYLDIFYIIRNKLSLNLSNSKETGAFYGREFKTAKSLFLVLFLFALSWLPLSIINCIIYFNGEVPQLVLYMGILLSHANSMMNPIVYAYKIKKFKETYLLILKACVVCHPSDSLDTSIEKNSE

As to `Cc1[nH]c2nc(-c3ccccc3)nc(N[C@H]3CC[C@H](O)CC3)c2c1C`, the “Binding A2b, value given in %” value in test [1] amounted to 30%. In addition, in test [2], the inhibition constant Ki worked out at 9.9 nM.

What is called Ki is a measure of affinity in units of concentration, obtained from inhibition or displacement.

The values above are taken from patent publication US6686366B1, “Compounds specific to adenosine A3 receptor and uses thereof” (OSI Pharmaceuticals, Inc., priority 1998, dated 2004).
